# Patent publication US8716436B2 (priority 2010, dated 2014)
# Amino acid sequences for entries named in this document (tags omitted).
# UniProt P41143, whole entry: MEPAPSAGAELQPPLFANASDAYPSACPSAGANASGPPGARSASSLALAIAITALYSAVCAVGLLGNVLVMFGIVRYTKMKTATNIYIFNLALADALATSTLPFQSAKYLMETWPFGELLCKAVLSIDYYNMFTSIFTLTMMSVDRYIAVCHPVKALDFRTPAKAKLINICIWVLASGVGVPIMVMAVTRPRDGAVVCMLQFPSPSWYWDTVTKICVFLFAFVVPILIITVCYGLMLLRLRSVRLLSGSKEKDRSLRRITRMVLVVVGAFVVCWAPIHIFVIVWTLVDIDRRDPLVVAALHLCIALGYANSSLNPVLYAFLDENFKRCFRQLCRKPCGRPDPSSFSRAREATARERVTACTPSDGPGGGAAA
# Tests used:
# [1] = target: T1, cloned human delta opioid receptor (Homo sapiens, UniProt P41143); experiment: biochemical
# T1 construct: expressed in transfected cells
# [2] = target: human delta opioid receptor (Homo sapiens, UniProt P41143); experiment: biochemical; type: binding
compound,measurement,setting,value
"C[C@@H](NC(=O)[C@@H](N)Cc1ccc(O)cc1)C(=O)NCC(=O)N(C)[C@@H](Cc1ccccc1)C(=O)NCCO [DAMGO, [D-Ala^2, N-Me-Phe^4, Gly-ol]-enkephalin, reference compound]",EC50,[1],3640 nM
same,Ki,[2],589 nM
